Apparent affinities of Ab-91 variants for a coronavirus HR2 peptide

Binding partner: SARS-CoV-2 spike HR2 peptide, sequence PDVDLGDISGINAS.

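AAYL51 was designed without a model: most single CDR substitutions and a random sample of double and triple ones. In AlphaSeq, yeast of one mating type display the scFv and yeast of the other type display the target. Mating (16 h, 30 °C) was followed by selection of diploids and sequencing of their barcodes. The ratio of observed to expected reads was calibrated, replicate by replicate, on BCL2-family standards whose Kd was known from biolayer interferometry. The assay was run in three technical replicates.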

Parent scFv Ab-91: VL joined to VH by three GGGGS repeats. Changes lie in the heavy chain CDRs alone.
VL: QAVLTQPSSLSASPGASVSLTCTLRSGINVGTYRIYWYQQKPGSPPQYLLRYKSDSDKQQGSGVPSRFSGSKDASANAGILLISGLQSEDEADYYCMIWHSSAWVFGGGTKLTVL
VH: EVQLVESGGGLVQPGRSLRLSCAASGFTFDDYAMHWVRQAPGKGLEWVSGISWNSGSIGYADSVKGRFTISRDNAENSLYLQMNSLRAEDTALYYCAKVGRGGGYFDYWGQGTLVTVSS

Substitutions are numbered in sequence along the VH above, starting at 1 (not Kabat).
Every variant below is changed at D30 of the VH (sequential numbering).
Affinities are written as log10 Kd with Kd in nM; a lower number is a better binder.
Where no diploid with the target was found in that replicate, the entry reads "ND": below detection, most likely a poor binder, though not proof of it.
Empty control strains, which show no peptide, gave a signal in 21% of pairings with library AAYL51; the median was 4.54 and 95% of these signals were weaker than 3.26. No background was subtracted. Also given: how often the same scFv was detected with the empty control strains.
In this assay the parent's reference entry averaged 1.86; its copy inside this library read 0.88.

Variant D30R K65E V99Y showed ND, ND, ND (controls 0 of 9). Variant F27A D30G D107W showed 2.86, 4.18, ND (controls 0 of 9). Variant D30V Y108S showed 1.41, 1.55, 0.37 (controls 1 of 9). For F27W D30R W53R, the assay gave ND, ND, ND (controls 0 of 9). With D30T G50Q the result was ND, ND, ND (controls 2 of 9). Variant D30Y I51H G100W showed 4.11, ND, ND (controls 1 of 9). With F29R D30P S55P the result was 5.16, 6.19, ND (controls 1 of 9).

Variant D30V I51T G100S gave ND, ND, 4.33 (controls 1 of 9). For D30M K65T F106Q, the assay gave ND, ND, ND (controls 1 of 9). For D30N Y60V K65I, the assay gave 1.79, 1.67, 1.48 (controls 4 of 9). With D30I V99R Y105C the result was 4.50, ND, 3.58 (controls 1 of 9). For T28R D30T M34H, the assay gave 3.51, 4.38, 4.45 (controls 8 of 9). For D30N D31W S55A, the assay gave 0.98, 1.24, 0.69 (controls 2 of 9). For D30I R101I D107F, the assay gave ND, ND, ND (controls 0 of 9).

Variant F27D D30L G50P showed ND, ND, ND (controls 1 of 9). Variant D30F G104R showed ND, ND, ND (controls 1 of 9). Variant D30N N54R I58P gave 4.72, 4.14, 5.17 (controls 2 of 9). Variant F29C D30G G104M gave 4.05, ND, ND (controls 0 of 9). Variant D30P S55V G102W gave 2.50, 1.06, -0.06 (controls 0 of 9). For D30H A33M Y105E, the assay gave 5.57, ND, ND (controls 3 of 9). Variant D30T S57V G103M showed ND, ND, 1.81 (controls 0 of 9).

Variant D30R M34N R101T gave ND, ND, ND (controls 0 of 9). Variant D30R V64H G100Q showed 1.52, 1.98, 1.15 (controls 2 of 9). Variant D30R M34W I51G gave 4.38, ND, ND (controls 3 of 9). With T28D D30G K65N the result was 1.06, 1.39, 1.21 (controls 0 of 9). For D30C K65T V99W, the assay gave ND, ND, ND (controls 0 of 9). Variant D30N A33I A61S showed ND, 4.99, 4.58 (controls 1 of 9). For G26E D30Y Y32T, the assay gave 3.78, ND, 2.72 (controls 1 of 9).

Variant D30S I58F V99Q showed ND, 4.99, ND (controls 2 of 9). With D30T D31C G56K the result was ND, ND, ND (controls 0 of 9). Variant D30Q G50I I58S gave 3.64, ND, ND (controls 3 of 9). Variant D30V N54M R101E showed 4.61, 4.72, ND (controls 0 of 9). Variant D30A K65F F106S gave 3.65, ND, ND (controls 2 of 9). Variant D30R D62T S63W showed 0.88, 0.78, 0.62 (controls 1 of 9). Variant D30L V99I showed 1.04, 1.05, 0.69 (controls 3 of 9).

Variant D30M G50R G103F gave ND, ND, ND (controls 0 of 9). For D30W Y32T R101S, the assay gave 5.34, ND, ND (controls 0 of 9). With D30F G100M G103F the result was ND, 4.47, ND (controls 2 of 9). Variant F29Y D30E G50I gave 3.54, ND, ND (controls 1 of 9). Variant D30P G50N W53D gave ND, ND, ND (controls 0 of 9). Variant D30H A61R K65A showed 3.63, 2.94, 3.01 (controls 1 of 9). Variant D30V Y105A D107M gave 3.27, 3.18, 2.96 (controls 4 of 9).

Repeated from above, the 4 best binders with a signal in all replicates:

changes	log10 Kd (nM) by replicate	signal with controls
D30R D62T S63W	0.88, 0.78, 0.62	1 of 9
D30L V99I	1.04, 1.05, 0.69	3 of 9
D30N D31W S55A	0.98, 1.24, 0.69	2 of 9
D30V Y108S	1.41, 1.55, 0.37	1 of 9

Data: MIT Lincoln Laboratory AlphaSeq set, Engelhart et al. 2022, doi:10.1038/s41597-022-01779-4, as distributed in FLAb.